# This is a selection; strong and weak results do not stand in their true shares. Activity calls are given as the source filed them.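 How the source made its calls: active means B-score under library mean minus 3 SD, initial fluorescence not abnormally high, positive integrated signal ratio; inactive means the rest.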
# By UniProt entry, the sequences of proteins in these tests, tags left out.
# UniProt Q61143, whole entry: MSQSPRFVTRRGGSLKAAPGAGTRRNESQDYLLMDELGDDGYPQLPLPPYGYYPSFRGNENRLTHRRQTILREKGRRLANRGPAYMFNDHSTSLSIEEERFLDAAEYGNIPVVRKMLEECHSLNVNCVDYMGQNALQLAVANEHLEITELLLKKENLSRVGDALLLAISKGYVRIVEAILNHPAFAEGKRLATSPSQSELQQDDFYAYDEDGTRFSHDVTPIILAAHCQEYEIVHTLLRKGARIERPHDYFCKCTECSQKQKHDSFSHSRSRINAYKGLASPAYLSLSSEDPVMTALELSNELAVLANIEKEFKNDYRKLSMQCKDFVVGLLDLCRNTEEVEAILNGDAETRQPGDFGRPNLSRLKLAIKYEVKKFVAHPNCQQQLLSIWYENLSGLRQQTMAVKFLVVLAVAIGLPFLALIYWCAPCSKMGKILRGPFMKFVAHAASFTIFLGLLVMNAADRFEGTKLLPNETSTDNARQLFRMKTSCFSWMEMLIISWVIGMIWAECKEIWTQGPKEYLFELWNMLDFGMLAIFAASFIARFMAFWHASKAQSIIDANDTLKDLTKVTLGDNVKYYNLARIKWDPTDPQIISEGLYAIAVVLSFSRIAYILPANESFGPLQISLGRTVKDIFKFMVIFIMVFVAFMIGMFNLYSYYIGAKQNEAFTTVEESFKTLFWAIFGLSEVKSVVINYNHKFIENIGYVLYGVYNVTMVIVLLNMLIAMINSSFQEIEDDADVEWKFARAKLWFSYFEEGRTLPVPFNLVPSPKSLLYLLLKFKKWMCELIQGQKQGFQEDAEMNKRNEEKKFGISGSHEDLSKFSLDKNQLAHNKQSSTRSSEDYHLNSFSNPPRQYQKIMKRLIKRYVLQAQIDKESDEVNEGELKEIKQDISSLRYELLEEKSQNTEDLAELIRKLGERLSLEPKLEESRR
# Biological target: Short transient receptor potential channel 6 (Mus musculus) (UniProt Q61143)
# Assay: mouse TRPC6 channel inhibitors, primary screen, cell-based, HEK293, membrane potential dye (AID 2553);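 on B-score: B-score derived from integrated fluorescence ratio over the kinetic read; more negative B-score means stronger inhibition of depolarization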
# Conditions: ACh-evoked depolarization, at 10 µM; stronger effect = lower value
SMILES,outcome,B-score
COc1ccc(NC2CCN(CCc3ccccc3)CC2)c(OC)c1,inactive,
CCN1CCC(Nc2cccc(F)c2)CC1,inactive,
CN(C)c1ccc(C(=O)NCC2(N3CCCCC3)CCCCC2)cc1,inactive,
COc1cc(OC)cc(C(=O)NCC2(N3CCCCC3)CCCCC2)c1,inactive,
Cc1ccc(C(=O)NCC2(N3CCCCC3)CCCCC2)o1,inactive,
Fc1ccccc1NC1CCN(Cc2ccccc2)CC1,inactive,
COc1cccc(C(=O)N(c2cc(C)cc(C)c2)C2CCN(C(=O)OC(C)(C)C)CC2)c1,inactive,
COc1cc(OC)cc(C(=O)NCC2(N3CCOCC3)CCCCC2)c1,inactive,
CCC(CO)(C(=O)OC1CN2CCC1CC2)c1ccccc1 (stereo unspecified),,active: -7.12
CN1CCC(Nc2ccc(Cl)cc2)CC1,inactive,
CCCOc1ccc(C)cc1CN(CCCl)CCCl,inactive,
CCOc1ncccc1C(=O)NCC1(N2CCOCC2)CCCCC1,inactive,
CN1CCC(Nc2ccc(F)c(Cl)c2)CC1,inactive,
CC(C)(C)OC(=O)N1CCC(Nc2ccccc2)CC1,inactive,
O=C(O)C1(Nc2ccccc2)CCN(Cc2ccccc2)CC1,inactive,
CCCOc1ccc(C(=O)NCC2(N(C)C)CCCCC2)cc1,inactive,
CCOC(=O)N1CCC(Nc2ccc(C)cc2)CC1,inactive,
N/C(=N\O)c1c(N)no[n+]1[O-],inactive,
O=C(OC1CN2CCC1CC2)C1c2ccccc2C=Cc2ccccc21 (stereo unspecified),,active: -7.24
CCc1cc(C(=O)NCC2(N3CCCCC3)CCCCC2)sc1C,inactive,
COc1ccc(C(=O)NCC2(N3CCOCC3)CCCCC2)cc1OC,inactive,
CN(C)C1(CNC(=O)c2cccc(C#N)c2)CCCCC1,inactive,
c1ccc(CN2CCC(Nc3ccccc3)CC2)cc1,inactive,
CCCN1CCC(Nc2cc(OC)cc(OC)c2)CC1,inactive,
N#Cc1ccc(C(=O)NCC2(N3CCCCC3)CCCCC2)cc1,inactive,
CC(C)(C)OC(=O)N1CCC(N(C(=O)c2ccccc2)c2ccc(Cl)cc2)CC1,inactive,

# Source: PubChem BioAssay AID2553 (Johns Hopkins Ion Channel Center, 2010)
